{"source": "paper PMC8780434", "about": "(Viruses, 2022)", "key": {"[1]": {"experiment": "Cell viability assay (CellTiter 96 AQueous) in HeLa cells", "settings": "human"}, "[2]": {"experiment": "Cell viability assay (CellTiter 96 AQueous) in RD cells", "settings": "human"}}, "data": [{"smiles": "Oc1c(Cl)cc(Cl)c(Cl)c1Cc1c(O)c(Cl)cc(Cl)c1Cl", "note": "[Hexachorophene, Hexachlorophene]", "values": [{"measurement": "CC50 at 12 h", "setting": "[1]", "value": 23.8, "unit": "µM"}, {"measurement": "CC50 at 12 h", "setting": "[2]", "value": 28.6, "unit": "µM"}]}]}
